# Columns and labels:
# The chains behind the UniProt entries cited, without tags or fusion partners. Residues count along the entry.
# UniProt P14780, 94-707, species assumed: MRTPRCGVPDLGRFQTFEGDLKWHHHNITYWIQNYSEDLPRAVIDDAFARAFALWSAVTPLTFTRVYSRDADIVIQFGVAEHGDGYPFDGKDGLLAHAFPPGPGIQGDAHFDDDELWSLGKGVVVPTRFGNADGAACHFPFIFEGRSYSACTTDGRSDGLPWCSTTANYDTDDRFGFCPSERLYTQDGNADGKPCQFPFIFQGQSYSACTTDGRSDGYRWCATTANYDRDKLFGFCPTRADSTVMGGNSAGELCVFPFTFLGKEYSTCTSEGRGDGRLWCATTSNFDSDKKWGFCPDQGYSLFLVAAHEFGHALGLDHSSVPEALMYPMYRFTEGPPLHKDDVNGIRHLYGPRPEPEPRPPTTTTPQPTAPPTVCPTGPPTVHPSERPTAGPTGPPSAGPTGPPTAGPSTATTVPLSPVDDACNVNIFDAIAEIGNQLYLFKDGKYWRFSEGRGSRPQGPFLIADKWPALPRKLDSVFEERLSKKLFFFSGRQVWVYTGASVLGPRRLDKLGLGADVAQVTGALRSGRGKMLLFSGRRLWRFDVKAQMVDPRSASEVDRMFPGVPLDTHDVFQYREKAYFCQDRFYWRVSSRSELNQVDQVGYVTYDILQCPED
# UniProt P78536, 215-824 limits assumed: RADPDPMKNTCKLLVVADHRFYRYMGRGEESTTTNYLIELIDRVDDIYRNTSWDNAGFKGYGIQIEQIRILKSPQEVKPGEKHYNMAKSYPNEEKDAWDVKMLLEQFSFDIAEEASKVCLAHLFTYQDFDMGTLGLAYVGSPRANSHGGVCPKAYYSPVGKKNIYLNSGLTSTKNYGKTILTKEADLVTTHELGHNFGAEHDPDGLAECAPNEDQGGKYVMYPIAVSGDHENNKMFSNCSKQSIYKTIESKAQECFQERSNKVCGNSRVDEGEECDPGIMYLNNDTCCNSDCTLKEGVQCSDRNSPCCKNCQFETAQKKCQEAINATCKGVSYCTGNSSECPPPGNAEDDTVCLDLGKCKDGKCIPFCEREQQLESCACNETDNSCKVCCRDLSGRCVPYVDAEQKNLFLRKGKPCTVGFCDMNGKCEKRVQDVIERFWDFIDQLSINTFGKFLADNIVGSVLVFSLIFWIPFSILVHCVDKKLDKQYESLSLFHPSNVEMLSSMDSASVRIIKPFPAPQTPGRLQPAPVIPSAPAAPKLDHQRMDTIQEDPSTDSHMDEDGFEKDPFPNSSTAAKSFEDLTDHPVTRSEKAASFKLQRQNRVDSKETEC
# UniProt P08254, 100-477, species assumed: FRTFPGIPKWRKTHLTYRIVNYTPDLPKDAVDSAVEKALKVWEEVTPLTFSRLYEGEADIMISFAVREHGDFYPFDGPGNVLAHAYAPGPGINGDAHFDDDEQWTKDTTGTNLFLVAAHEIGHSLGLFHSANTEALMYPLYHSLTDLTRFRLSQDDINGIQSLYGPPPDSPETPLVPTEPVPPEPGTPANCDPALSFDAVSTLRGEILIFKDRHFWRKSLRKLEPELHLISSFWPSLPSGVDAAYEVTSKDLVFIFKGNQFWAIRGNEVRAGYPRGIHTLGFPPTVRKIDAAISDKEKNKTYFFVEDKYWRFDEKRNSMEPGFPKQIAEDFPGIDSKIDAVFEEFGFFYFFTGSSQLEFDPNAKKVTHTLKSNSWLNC
# Assay type in all cases: biochemical
# MMP9 = MMP9 (Homo sapiens (Human), UniProt P14780); assay: Selectivity test MMP9
# TACE enzyme = TACE enzyme (Homo sapiens, UniProt P78536); assay: Enzymatic test of TACE inhibition
# Method: The substrate is used at 40 μM. […] Test of the Products
# MMP3 = MMP3 (Homo sapiens (Human), UniProt P08254); assay: Selectivity test MMP3
structure (smiles),measurement,setting,value
"Cc1cc(COc2ccc(C(=O)NC[C@@H](C(=O)NO)N3CCCCC3)cc2)c2ccccc2n1 [Example 2, N—((S)-2-hydroxycarbamoyl-2-piperidin-1-yl-ethyl)-4-(2-methylquinolin-4-ylmethoxy)benzamide]",IC50,MMP9,> 10000 nM
"O=C(NC[C@@H](C(=O)NO)N1CCCCC1)c1ccc(OCc2ccnc(-c3ccccc3)c2)cc1 [Example 4, N—((S)-2-hydroxycarbamoyl-2-piperidin-1-yl-ethyl)-4-(2-phenylpyridin-4-ylmethoxy)benzamide]",IC50,TACE enzyme; fluorescent substrate 40 μM,61 nM
same,IC50,TACE enzyme; selectivity table,61 nM
same,IC50,MMP3,> 10000 nM
"O=C(NC[C@@H](C(=O)NO)N1CCCCC1)c1ccc(OCc2ccncc2)cc1 [Example 5, N—((S)-2-hydroxycarbamoyl-2-piperidin-1-yl-ethyl)-4-(pyridin-4-ylmethoxy)benzamide]",IC50,MMP9,> 10000 nM
"O=C(NC[C@@H](C(=O)NO)N1CCCCC1)c1ccc(OCc2ccnc(Br)c2)cc1 [Example 8, 4-(2-bromopyridin-4-ylmethoxy)-N—((S)-2-hydroxycarbamoyl-2-piperidin-1-ylethyl)benzamide]",IC50,TACE enzyme; fluorescent substrate 40 μM,105 nM

# Reference: US9266848B2, “4-alkoxy-N-(2-hydroxycarbamoyl-2-piperidinyl-ethyl)-benzamide compounds as selective TACE-inhibitors for the treatment of inflammatory diseases” (GALDERMA RESEARCH & DEVELOPMENT, priority 2009, dated 2016)
